Data published in patent US20070213270A1, “PEPTIDE YY FORMULATIONS HAVING INCREASED STABILITY AND RESISTANCE TO MICROBIAL AGENTS” (priority 2004, published 2007).

Legend:
[1] = system: normal, human-derived tracheal/bronchial epithelial cells (EpiAirway™ Tissue Model); test: Tissue permeation assay (EpiAirway tissue model, PYY 3-36 EIA); type: in vitro ADME
Method: The experimental procedures for the in vitro tissue studies are described below. The cell line MatTek Corp. (Ashland, Mass.) was the source of normal, human-derived tracheal/bronchial epithelial cells (EpiAirwayTM Tissue Model). The cells were provided as inserts grown to confluent on Millipore […] filters comprised of transparent hydrophilic Teflon (PTFE). The membranes were cultured in 1 mL basal media (phenol red-free and hydrocortisone-free Dulbecco's Modified Eagle's Medium (DMEM)) at 37° C. with 5% CO2 for 24-48 hours before use. Inserts were feed for each day of recovery. Same media was used during testing. Each tissue insert was placed in an individual well containing 1 mL of basal media. On the apical surface of the inserts, 100 ul of test formulation was applied, and the samples were placed on a shaker ( 100 rpm) for 120 min at 37° C. The underlying culture media samples was stored at 2-8° C. until needed. Transepithelial electrical resistance (TEER) was measured before and after the 2-h incubation. Following the incubation, the cell inserts were analyzed for cell viability via the mitochondrial dehydrogenase (MDH) assay. […] (Belmont, Calif.). Samples are diluted appropriate with assay buffer that is provided with the kit. The protocol that comes with the kits will be used.

[2] = in vivo

Structure (SMILES): CC[C@H](C)[C@H](N)C(=O)N[C@@H](CCCCN)C(=O)N1CCC[C@H]1C(=O)N[C@@H](CCC(=O)O)C(=O)N[C@@H](C)C(=O)N1CCC[C@H]1C(=O)NCC(=O)N[C@@H](CCC(=O)O)C(=O)N[C@@H](CC(=O)O)C(=O)N[C@@H](C)C(=O)N[C@@H](CO)C(=O)N1CCC[C@H]1C(=O)N[C@@H](CCC(=O)O)C(=O)N[C@@H](CCC(=O)O)C(=O)N[C@@H](CC(C)C)C(=O)N[C@@H](CC(N)=O)C(=O)N[C@@H](CCCN=C(N)N)C(=O)N[C@@H](Cc1ccc(O)cc1)C(=O)N[C@@H](Cc1ccc(O)cc1)C(=O)N[C@@H](C)C(=O)N[C@@H](CO)C(=O)N[C@@H](CC(C)C)C(=O)N[C@@H](CCCN=C(N)N)C(=O)N[C@@H](Cc1cnc[nH]1)C(=O)N[C@@H](Cc1ccc(O)cc1)C(=O)N[C@@H](CC(C)C)C(=O)N[C@@H](CC(N)=O)C(=O)N[C@@H](CC(C)C)C(=O)N[C@H](C(=O)N[C@H](C(=O)N[C@@H](CCCN=C(N)N)C(=O)N[C@@H](CCC(N)=O)C(=O)N[C@@H](CCCN=C(N)N)C(=O)N[C@@H](Cc1ccc(O)cc1)C(N)=O)[C@@H](C)O)C(C)C [PYY3-36, PYY(3-36)]
- effect of change in tonicifier upon in vitro performance [1]: no significant effect
- effect of osmolarity upon in vitro performance [1]: significant impact
- effect of change in pH upon in vitro performance ([1]; pH 3.8): no impact
- level of PYY peptide reached [2]: post-prandial physiological levels
